Yeast mating assay 2: variants of the scFv Ab-91

Target: peptide PDVDLGDISGINAS, taken from heptad repeat 2 (HR2) of SARS-CoV-2 spike.

The variants keep the light chain, the linker and the frameworks of Ab-91 (scFv order VL, the linker GGGGSGGGGSGGGGS, VH).
VL: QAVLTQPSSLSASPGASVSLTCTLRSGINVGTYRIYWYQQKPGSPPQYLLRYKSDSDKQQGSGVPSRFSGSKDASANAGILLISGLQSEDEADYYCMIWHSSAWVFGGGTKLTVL
VH: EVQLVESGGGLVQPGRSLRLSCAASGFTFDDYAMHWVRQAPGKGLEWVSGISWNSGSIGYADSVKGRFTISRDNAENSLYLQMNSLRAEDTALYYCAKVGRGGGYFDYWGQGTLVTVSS

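AAYL51 was designed without a model: most single CDR substitutions and a random sample of double and triple ones. Affinity was read by AlphaSeq, a pooled yeast mating assay with surface-displayed partners. Pairs that bind mate more often; barcode pairs of the diploids are counted by sequencing. Scores were corrected for input abundance and mapped to Kd with protein pairs of known affinity run in the same pool. Mating was done three times.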

Variants are written as CDR1, CDR2 and CDR3 of the heavy chain (limits as in the source). Parent: GFTFDDYAMH, GISWNSGSIGYADSVK, VGRGGGYFDY. This list gathers variants with a substitution at G59 (VH, numbered from residue 1). Values are apparent Kd, the geometric mean of the replicates that gave a signal; lower means stronger binding. Where no diploid with the target was found in any replicate, the entry reads "nd": below detection, most likely a poor binder, though not proof of it. Three control strains display no target. For library AAYL51, 21% of the pairings with them gave a signal, with a median of 34 µM and one signal in twenty below 1.8 µM, so weak values seen in few replicates may be background. For reference, the parent read 72 nM as the reference entry and 7.5 nM as a member of this library.

CDR-H1,CDR-H2,CDR-H3,Kd (apparent),detected
GFTFDDYAMH,GISWNSGSMNYCDSVK,VGRGGGYFDY,5.1 µM,1/3
GFTRDDYAMH,GISWNSGSIKYADSVF,VGRGGGYFDY,34 µM,2/3
GFTFDDYAMH,GISWNSWSIEYADSVK,VGRGGGYFDY,9.1 µM,2/3
GFTFDDYCMH,GISWNSGSIEYADSVK,VGRGGGYFDY,nd,0/3
GFTFDDYAMH,GFSWNSGGIRYADSVK,VGRGGGYFDY,nd,0/3
GFTFDDYAFH,GISWNSGSIAYADSVK,VKRGGGYFDY,84 µM,1/3
MFTFDDYATH,GISWNSGSIPYADSVK,VGRGGGYFDY,nd,0/3
GFTFDDYAMH,EISWNSGSIYYADSVK,VGRGGGYFDY,nd,0/3
GFTFDDYAPH,GISWNSGSILYADSVK,VGRGGGYLDY,nd,0/3
GFTFDDYAMH,GISWNTGSILYADSVK,VTRGGGYFDY,nd,0/3
GFTFDDRAMH,GISWNSGSIMYADSVK,VGRGGGYPDY,nd,0/3
GFTFCDYAMH,GISWNSGMIVYADSVK,VGRGGGYFDY,7.5 µM,1/3
GFTFDDYAMH,GISWNSGSIVYACSVK,VGRGGGYGDY,210 µM,1/3
GFTYDDYAMH,GISWNSGSIRYADSYK,VGRGGGYFDY,nd,0/3
GFTFDDYAAH,GISWNSGSINYIDSVK,VGRGGGYFDY,7.6 µM,1/3
GFTFDDYAMH,GISWNSGSIFYADSVK,VGRGGGYFDY,9.7 µM,1/3
GFTFDDYAMH,GISWNSGSIDYADSVK,VGRDGGYFQY,54 µM,2/3
GFTFDDFRMH,GISWNSGSISYADSVK,VGRGGGYFDY,nd,0/3
GFTFDIYAMH,GISWNNGSIPYADSVK,VGRGGGYFDY,nd,0/3
GFTFDGYAMH,GISWNSGSIDYADSVK,VGRGGGYFDY,nd,0/3
GFTFDDWAMH,GISWNSGSIIYADSVK,DGRGGGYFDY,nd,0/3
GFTEDDYAMH,GISWNSGSHCYADSVK,VGRGGGYFDY,42 µM,2/3
GFTFDDYAMH,GISWNSGSIYYEDSVK,EGRGGGYFDY,nd,0/3
GFTFDDYPMH,GRSWNSGSICYADSVK,VGRGGGYFDY,nd,0/3
GFTFDDYAMH,GISWNSGSICYAFSVK,VGRGGGYFDN,nd,0/3
GFTFDDYAMH,GISPNSGSIQYADSVK,VIRGGGYFDY,nd,0/3
GFTFDDYAMH,AISWNSGSIQYADSVK,VGRGQGYFDY,11 µM,3/3
GFTFDDYAMH,WISWNSGSIIYADSVK,VGRGGGYFDY,nd,0/3
GFAFDDYAMH,AISWNSGSIIYADSVK,VGRGGGYFDY,nd,0/3
GFTFDDYAMH,GISWNSGSIRRADSVK,VGRGGGYFDY,6.0 µM,1/3
RFTFDDYAMH,GISWNSGSIDYADSVK,VGRGGGYFMY,nd,0/3
GFTFDDYAMH,GISWNSGSILYADSVK,VGRGGHYFKY,nd,0/3
GFTFDDYAMH,GISWNSGSILYADSVK,NGRGHGYFDY,nd,0/3
GFTFDDYAMH,GISWNSGSIPYADSVV,VGRGYGYFDY,5.7 µM,1/3
GFIFDDYAMH,GISWNSGSIKYAWSVK,VGRGGGYFDY,nd,0/3
GFTFDDYAMH,GISWNSGSISYADSVK,VLRGGIYFDY,7.0 µM,3/3
GFTFDDYAMH,GISWNSGSIHYADSVV,VGRGGGYFDG,810 µM,1/3
GFTFDDYAMH,GISWNSGSIVYADSRK,VGRGGGYFDY,nd,0/3
GFTFDDYAMH,WISWNSGSIQYADSVK,VGRGGGYFDD,nd,0/3
GFTFDDYAMH,GISWNSGSIRYMWSVK,VGRGGGYFDY,940 nM,1/3
GFTFDDYAMH,GISWNSGSGIYADSRK,VGRGGGYFDY,nd,0/3
GFTFDDYAHH,GISWNSGSIHYADSVK,VGIGGGYFDY,83 µM,3/3
GFTFDNYAMH,GISWNSGSIYYADSVK,VGRGGGYFDY,nd,0/3
GFTFDDYNMH,GISWNSGMIVYADSVK,VGRGGGYFDY,nd,0/3
GFTFDDYAMH,GISWNSGTIDYADSVK,DGRGGGYFDY,310 µM,2/3
GFTFKDYAMH,GISWNMGSISYADSVK,VGRGGGYFDY,30 µM,1/3
GFTFDDYAMH,GISWNSPSIVYADSVK,VGRGGWYFDY,nd,0/3
GFTFCDYAMH,GISWNSGSIEYADSVK,VCRGGGYFDY,220 µM,1/3
GFTFDDYAYH,GISWNSGSIYYADSVK,VGRGGGYFDY,17 µM,1/3
GFTFDDYAMH,GISWNIGSIVYADSVK,VGRGGTYFDY,nd,0/3
GFTFDDYAMH,GISWNSGSIYYADSVK,VGRGQGYFDY,nd,0/3
GFTFDDRAMH,GISWNSGSICYADSVK,VGRGGCYFDY,530 nM,3/3
GSTFDDYAMH,GISWNSGSHFYADSVK,VGRGGGYFDY,nd,0/3
YFTFDDYAMH,GISWNSGSIDYADEVK,VGRGGGYFDY,nd,0/3
GFTFDDYAMH,KISWNSGSIYYADSVK,VGRPGGYFDY,nd,0/3
HFTFDDYAMH,GISWNSGSIRNADSVK,VGRGGGYFDY,nd,0/3
GFTFDDYAMH,GISWNSGSICYADVVK,VFRGGGYFDY,170 µM,3/3
GFTFDFYAMH,GISWNDGSIPYADSVK,VGRGGGYFDY,380 µM,3/3
GFRFDDYAMH,GISWVSGSIWYADSVK,VGRGGGYFDY,81 µM,1/3
GFTFDDYAMH,GICWNSGSIYYADSVK,VGRGGGYCDY,nd,0/3
GFTFDDYADH,GISWNSGSINYADSVK,VGRGQGYFDY,37 µM,1/3
GFTFDDKAMH,GISWNSGSIYYADSVK,VGRGQGYFDY,170 µM,2/3
GFTFDDYAMH,ENSWNSGSIEYADSVK,VGRGGGYFDY,nd,0/3
GFTFDDYAYH,GISWNSGSICSADSVK,VGRGGGYFDY,nd,0/3
GFTFDDYAMH,GISINSGSIQYEDSVK,VGRGGGYFDY,nd,0/3
GFTFDDYAMH,GISWNSGSIYYPDSVK,VGVGGGYFDY,21 µM,3/3
GFTFDDYAMH,GISWNSGSIDYADSVK,VSRGGDYFDY,380 µM,3/3
GFTFDDYAMH,GISWNSGSINRTDSVK,VGRGGGYFDY,3.2 µM,1/3
GFTFDDYAMH,GISWNSGSIVYADTVK,VGRGGGYFDS,100 µM,3/3
GFTIDDYAMH,GISWNSGSCLYADSVK,VGRGGGYFDY,37 µM,1/3
GFTFDDFAMH,GISWNSGSIQYADSVK,VGNGGGYFDY,nd,0/3
GFTFTDYAMH,GISWNSGSIFYADSVK,VGRGKGYFDY,23 µM,1/3
GFTFHDEAMH,GISWNSGSIYYADSVK,VGRGGGYFDY,nd,0/3

Top 7 of the variants detected in all replicates, tightest first:

| CDR-H1 | CDR-H2 | CDR-H3 | Kd (apparent) | detected |
|---|---|---|---|---|
| GFTFDDRAMH | GISWNSGSICYADSVK | VGRGGCYFDY | 530 nM | 3/3 |
| GFTFDDYAMH | GISWNSGSISYADSVK | VLRGGIYFDY | 7.0 µM | 3/3 |
| GFTFDDYAMH | AISWNSGSIQYADSVK | VGRGQGYFDY | 11 µM | 3/3 |
| GFTFDDYAMH | GISWNSGSIYYPDSVK | VGVGGGYFDY | 21 µM | 3/3 |
| GFTFDDYAHH | GISWNSGSIHYADSVK | VGIGGGYFDY | 83 µM | 3/3 |
| GFTFDDYAMH | GISWNSGSIVYADTVK | VGRGGGYFDS | 100 µM | 3/3 |
| GFTFDDYAMH | GISWNSGSICYADVVK | VFRGGGYFDY | 170 µM | 3/3 |

The measurements come from Engelhart et al. 2022 (doi:10.1038/s41597-022-01779-4) through the FLAb antibody collection.